T1: ADH (Polaromonas sp.) (Polaromonas sp., UniProt Q126F5)
T1 sequence (Q126F5 1-267): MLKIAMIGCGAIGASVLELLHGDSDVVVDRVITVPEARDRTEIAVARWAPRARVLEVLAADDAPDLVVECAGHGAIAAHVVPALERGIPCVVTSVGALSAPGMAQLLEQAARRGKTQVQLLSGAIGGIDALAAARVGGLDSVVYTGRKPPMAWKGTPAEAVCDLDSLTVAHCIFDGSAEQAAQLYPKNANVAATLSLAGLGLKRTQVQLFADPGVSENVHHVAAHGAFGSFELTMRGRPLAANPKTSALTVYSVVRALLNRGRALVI

T2: purified ADH (Polaromonas sp.) (Polaromonas sp., UniProt Q126F5)
T2 sequence (Q126F5 1-267): T1 sequence (Q126F5 1-267)

T3: Polaromonas sp. aspartate dehydrogenase (Polaromonas sp., UniProt Q126F5)
T3 sequence (Q126F5 1-267): T1 sequence (Q126F5 1-267)

B1: Polaromonas sp. ADH (Polaromonas sp. JS666) (protein)
chain: T1 sequence (Q126F5 1-267)

Tests used:
[1] = target: T1, ADH (Polaromonas sp.); assay: Screening of substrate specificity, ADH; conditions: relative to oxaloacetate; 20 mM substrate, […] NADH, pH 9
[2] = target: T2, purified ADH (Polaromonas sp.); assay: Screening of alternative substrates for purified ADH; conditions: 10 mM, […] NADH, 50 mM NH4Cl, 29° C.
[3] = target: T3, Polaromonas sp. aspartate dehydrogenase; assay: Regulatory properties of the ADH; conditions: addition of 1 mM, 29° C., pH 9.8
[4] = substrate: NC(=O)c1ccc[n+]([C@@H]2O[C@H](COP(=O)([O-])OP(=O)(O)OC[C@H]3O[C@@H](n4cnc5c(N)ncnc54)[C@H](O)[C@@H]3O)[C@@H](O)[C@H]2O)c1; assay: purified protein, by the assay type; conditions: other: Aspartic acid oxidative deamination; Michaelis-Menten plots
[5] = substrate: O=C(O)CC(=O)C(=O)O; assay: purified protein, by the assay type; conditions: other: Oxaloacetate reductive amination; Michaelis-Menten plots

| Molecule | Amination activity, ADH [1] | ability to replace oxaloacetate in forward reaction [2] | effect on ADH activity in forward and reverse reactions [3] | kcat/Km [4] [M⁻¹ s⁻¹] | kcat/Km [5] [M⁻¹ s⁻¹] |
| --- | --- | --- | --- | --- | --- |
| O=C(O)CCC(=O)C(=O)O [α-ketoglutarate] | na (no activity (<0.2%)) | No activity | not significantly affected |  |  |
| B1 |  |  |  | 34700 ± 1000 | 15000 ± 3330 |

Source: US9051591B2, “Bacterium of enterobacteriaceae family producing L-aspartic acid or L-aspartic acid-derived metabolites and a method for producing L-aspartic acid or L-aspartic acid-derived metabolites” (AJINOMOTO CO., INC., priority 2010, dated 2015)
